Measured values from ChEMBL document CHEMBL6071206, “Development of BODIPY FL SNS 032 as a Versatile Probe for Constitutive Androstane Receptor and Multiple Kinases” (ACS Med Chem Lett, 2024).

Sequences of proteins named here, by UniProt entry; tags and fusion partners are left off.
UniProt P50750, whole entry: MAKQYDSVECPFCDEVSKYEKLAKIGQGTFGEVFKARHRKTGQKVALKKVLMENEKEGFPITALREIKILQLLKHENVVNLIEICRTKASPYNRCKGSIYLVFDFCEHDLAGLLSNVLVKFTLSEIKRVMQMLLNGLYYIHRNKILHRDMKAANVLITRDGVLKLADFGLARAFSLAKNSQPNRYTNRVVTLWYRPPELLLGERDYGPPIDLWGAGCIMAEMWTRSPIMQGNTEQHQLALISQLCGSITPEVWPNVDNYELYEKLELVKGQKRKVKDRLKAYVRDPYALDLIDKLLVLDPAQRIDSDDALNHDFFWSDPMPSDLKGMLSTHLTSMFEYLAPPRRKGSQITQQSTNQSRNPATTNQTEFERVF

Target: CDK9/cyclin T1 (Homo sapiens, UniProt P50750)
Assay: Inhibition of His-tagged human CDK9/CycT1 incubated for 90 mins by TR-FRET assay
Format: protein-complex assay

IC50: 1 nM
SMILES: Cn1cc(C2=C(c3cn(CCCSC(=N)N)c4ccccc34)C(=O)NC2=O)c2ccccc21 [BISINDOLYLMALEIMIDE IX]
